Experimental findings from PubChem BioAssay AID602449 (Sanford-Burnham Center for Chemical Genomics, 2012) are described below.

A word on the inhibition: it is the relative decrease from the control value, in per cent.

Only a part is listed here, and it is no random draw. The source made the active and inactive calls.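 Rule for the calls: active = inhibition of 50% or more, scaled per plate between neutral and stimulator controls; inactive = the rest.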

The nature of the test: mitochondrial permeability transition pore inhibitors, primary screen, biochemical, isolated mouse mitochondria, absorbance (AID 602449).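 Note: 0% = DMSO wells given calcium and 100% = 1 mM EGTA wells.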 The conditions noted are these: Ca2+ swelling absorbance, 30 min, at 10 µM, active compounds read high.
Turning to `CC(NC(=O)COC(=O)C(O)(c1ccccc1)c1ccccc1)c1ccccc1` (centres undefined), the inhibition was inactive: -0.4%.
To `CN(C)C(=O)Oc1noc2ccccc12` belongs inactive: 2.6%.
As for `O=c1c2cc([N+](=O)[O-])ccc2[nH]c2c([N+](=O)[O-])cc([N+](=O)[O-])cc12`, the inhibition was active: 104%.
Turning to `c1ccc(-c2nn[nH]n2)c(-c2nn[nH]n2)c1`, the inhibition is inactive: -1.4%.
To `Cc1ccc(NP(=O)(Oc2cccc(C)c2)Oc2cccc(C)c2)nc1` belongs inactive: 2.7%; to `CCNC(=S)/N=C(\N)N[N+](=O)[O-]`, inactive: -0.9%; to `O=C(NC1CCS(=O)(=O)C1)NP(=S)(Oc1ccccc1)Oc1ccccc1` (centres undefined), inactive: -0.2%.
Then `O=P1(N(CCCl)CCCl)OCCC2CCCCN21` (centres undefined), with inactive: -2.1%; and `Nc1cccc2ccc([As](=O)(O)O)cc12`, with inactive: -1.5%; and `CCN(N=Nc1nonc1N)c1nonc1N`, with inactive: -12.8%.
As for `CN(C)P(=O)(N(C)C)n1c(Nc2ccccc2)nnc1-c1ccccc1`, the inhibition is inactive: -0.4%.
On to `O=P(Nc1nc2ccc(Cl)cc2s1)(c1ccccc1)c1ccccc1`, for which the inhibition was inactive: 26%.
Take `O=C(O)c1ccccc1[As](=O)(O)O`: the inhibition is inactive: 0.4%.
To `CC(=O)Nc1ccc([As](=O)(O)O)cc1` belongs inactive: -0.9%.
Then `CC(C)NCC(O)COc1ccc(CC(N)=O)cc1` (centres undefined), with inactive: 0.6%; and `CCCC1OP(N)(=O)OCC1CC` (centres undefined), with inactive: -2.6%.
Then `CCOP(=O)(Nc1ccccc1)OCC`, with inactive: -6.3%; and `Cc1cc(SC(NC(=O)c2ccc(F)cc2)C(Cl)(Cl)Cl)ncn1` (centres undefined), with inactive: 0.4%; and `Cc1ccc(NP(=O)(Oc2ccccc2F)Oc2ccccc2F)nc1`, with inactive: 2%.
As to `CN(C(=O)Cc1ccc(Cl)c(Cl)c1)[C@H]1CCCC[C@@H]1N1CCCC1`, the inhibition was inactive: 2.7%.
Then `Oc1ccccc1CNc1ccccn1`, with inactive: -1.1%; and `O=C(NC(Sc1ccncn1)C(Cl)(Cl)Cl)c1ccccc1` (centres undefined), with inactive: 1.8%.
To `CC(C)CC(=O)NC(Sc1ccc(Cl)cc1)C(Cl)(Cl)Cl` (centres undefined) belongs inactive: 3.8%.
For the compound `Nc1cc(N)c2nonc2c1[N+](=O)[O-]`, the inhibition is inactive: 1.8%.
To `O=[N+]([O-])C1C(O)C(O)C([N+](=O)[O-])C(O)C1O` (centres undefined) belongs inactive: 0.1%; to `CN(C(=O)Cc1ccc(Cl)c(Cl)c1)[C@H]1CCCC[C@H]1N1CCCC1`, inactive: -2%.
Then `Cc1ccc(N/C(=N/P(=O)(N2CCOCC2)N2CCOCC2)N2CCOCC2)cc1`, with inactive: 2.3%; and `NC(=O)c1cc([N+](=O)[O-])cc([N+](=O)[O-])c1N`, with inactive: 0.1%.
In the case of `Clc1ccc(Cl)c(NC2=NCC(CBr)S2)c1` (centres undefined), the inhibition is inactive: -1.1%.
Then `CN1CCCC(OC(=O)C(c2ccccc2)c2ccccc2)C1` (centres undefined), with inactive: 38.7%.
As for `COc1ccccc1OP(=O)(Nc1ccc(C)cn1)Oc1ccccc1OC`, the inhibition was inactive: -1.3%.
As for `Cc1ccc(OP(=O)(Nc2nccs2)Oc2ccc(C)cc2)cc1`, the inhibition is inactive: 3.1%.
As for `CCN(/C(=N/P(=O)(N1CCOCC1)N1CCOCC1)N1CCOCC1)c1ccc(OC)cc1`, the inhibition is inactive: -0.3%.
Then `Nc1ccc([As](=O)(O)c2ccc(N)cc2)cc1`, with inactive: 0.6%; and `C[N+]1=C2C=CC=CC=C2SC12C([N+](=O)[O-])=CC([N+](=O)[O-])=C[C-]2[N+](=O)[O-]` (centres undefined), with inactive: 12.6%.
Then `c1cc(-c2nn[nH]n2)ccc1-c1nn[nH]n1`, with inactive: -1.5%; and `CC1CCN(C(=O)Oc2c(Cl)cc(Cl)c3cccnc23)CC1`, with inactive: -1.6%; and `CC(C)=N/N=C(\N)N[N+](=O)[O-]`, with inactive: -0.7%.
Then `CC(C)c1nc(Nc2ccccc2)n(P(=O)(N(C)C)N(C)C)n1`, with inactive: 0.4%.
Consider `CN(C)C(=O)OCCc1n(C)cc[n+]1C`, for which the inhibition is inactive: 2%.
For the compound `COc1ccc(C2=NCC(CBr)S2)cc1` (centres undefined), the inhibition is inactive: -2.5%.
Then `Cc1ccc(NP(=O)(Oc2ccccc2)Oc2ccccc2)nc1`, with inactive: 0.2%; and `CCc1nc2c(n1)c1c(non1O)c1c2no[n+]1[O-]`, with inactive: 9.6%.
Then `O=[N+]([O-])c1cc([N+](=O)[O-])c(CCNc2ccccc2)c([N+](=O)[O-])c1`, with inactive: 15.9%; and `O=[N+]([O-])c1cccc2n[nH]nc12`, with inactive: 0.6%.
As for `CC(=O)N1C2C3N(C(C)=O)C1C1N(C(C)=O)C(C(N1C(C)=O)N3C(C)=O)N2C(C)=O`, the inhibition was inactive: 0.3%.
Take `CN1C(C(=O)Nc2ccccn2)=C(O)c2ccccc2S1(=O)=O`: the inhibition was inactive: 0.7%.
Then `O=[N+]([O-])c1ncn(CCn2ncnc2[N+](=O)[O-])n1`, with inactive: -1%; and `CC(C)(C)C(=O)NC(Sc1ccncn1)C(Cl)(Cl)Cl` (centres undefined), with inactive: 1.1%; and `O=C(O)CNc1ccc([As](=O)(O)O)cc1`, with inactive: 0.4%.
Then `O=[N+]([O-])c1cccc(NC2=NCC(CBr)S2)c1` (centres undefined), with inactive: -0.5%; and `COC(=O)C1(C)COP(=O)(Nc2ccccc2)OC1` (centres undefined), with inactive: -1%; and `O=P1(N(CCCl)CCCl)OCCCS1` (centres undefined), with inactive: 0.5%.
Then `O=C(Nc1cc([As](=O)(O)O)ccc1O)c1ccccc1`, with inactive: -0.2%.
